# Cyclic peptide permeability, from CycPeptMPDB

Data: CycPeptMPDB; original report Kelly et al. 2021, doi:10.1021/jacs.0c06115.

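The data file gives no further conditions (lipid, pH, time, direction or concentration), and values from different papers need not be comparable. The list need not hold all peptides of the study. Peptides that the database sets to -10, its floor, are left out.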

PAMPA measures passive passage through an artificial lipid membrane. MDCK values are permeabilities across Madin-Darby canine kidney cell monolayers. Permeability is given as log10 of P in cm/s; higher (less negative) is more permeable. Cells with "n/a" have no entry in this list.

compound,PAMPA (log10 cm/s),MDCK (log10 cm/s)
CC(=O)N1CCC[C@@H]1C(=O)N(C)[C@H](CC(C)C)C(=O)N[C@@H]1C(=O)N[C@H](CC(C)C)C(=O)N[C@@H](CC(C)C)C(=O)N[C@H](CC(C)C)C(=O)N(C)[C@H](C)C(=O)N[C@H](CC(C)C)C(=O)N2CCC[C@@H]2C(=O)O[C@@H]1C,-6.13,n/a
CC(=O)N1CCC[C@H]1C(=O)N(C)[C@@H](CC(C)C)C(=O)N[C@@H]1C(=O)N[C@@H](CC(C)C)C(=O)N[C@H](CC(C)C)C(=O)N(C)[C@@H](CC(C)C)C(=O)N[C@@H](C)C(=O)N[C@@H](CC(C)C)C(=O)N2CCC[C@H]2C(=O)O[C@@H]1C,-5.99,n/a
CC(=O)N1CCC[C@H]1C(=O)N(C)[C@H](CC(C)C)C(=O)N[C@@H]1C(=O)N(C)[C@@H](CC(C)C)C(=O)N[C@H](CC(C)C)C(=O)N[C@H](CC(C)C)C(=O)N[C@@H](C)C(=O)N[C@H](CC(C)C)C(=O)N2CCC[C@H]2C(=O)O[C@@H]1C,-6.53,n/a
CC(=O)N1CCC[C@H]1C(=O)N(C)[C@@H](CC(C)C)C(=O)N[C@@H]1C(=O)N[C@@H](CC(C)C)C(=O)N(C)[C@@H](CC(C)C)C(=O)N(C)[C@H](CC(C)C)C(=O)N(C)[C@@H](C)C(=O)N[C@H](CC(C)C)C(=O)N2CCC[C@H]2C(=O)O[C@@H]1C,-6.26,n/a
CC(=O)N1CCC[C@H]1C(=O)N(C)[C@H](CC(C)C)C(=O)N[C@@H]1C(=O)N[C@H](CC(C)C)C(=O)N[C@@H](CC(C)C)C(=O)N[C@H](CC(C)C)C(=O)N(C)[C@H](C)C(=O)N[C@@H](CC(C)C)C(=O)N2CCC[C@H]2C(=O)O[C@@H]1C,-5.06,-4.86
CC(=O)N1CCC[C@H]1C(=O)N(C)[C@@H](CC(C)C)C(=O)N[C@@H]1C(=O)N(C)[C@H](CC(C)C)C(=O)N[C@@H](CC(C)C)C(=O)N(C)[C@@H](CC(C)C)C(=O)N(C)[C@@H](C)C(=O)N[C@@H](CC(C)C)C(=O)N2CCC[C@H]2C(=O)O[C@@H]1C,-5.36,n/a
CC(=O)N1CCC[C@H]1C(=O)N(C)[C@@H](CC(C)C)C(=O)N[C@@H]1C(=O)N[C@H](CC(C)C)C(=O)N(C)[C@H](CC(C)C)C(=O)N(C)[C@H](CC(C)C)C(=O)N[C@@H](C)C(=O)N[C@H](CC(C)C)C(=O)N2CCC[C@H]2C(=O)O[C@@H]1C,-5.46,n/a
CC(=O)N1CCC[C@@H]1C(=O)N(C)[C@@H](CC(C)C)C(=O)N[C@@H]1C(=O)N[C@H](CC(C)C)C(=O)N[C@H](CC(C)C)C(=O)N[C@@H](CC(C)C)C(=O)N[C@@H](C)C(=O)N[C@H](CC(C)C)C(=O)N2CCC[C@H]2C(=O)O[C@@H]1C,-6.85,n/a
CC(=O)N1CCC[C@@H]1C(=O)N(C)[C@@H](CC(C)C)C(=O)N[C@@H]1C(=O)N[C@H](CC(C)C)C(=O)N(C)[C@@H](CC(C)C)C(=O)N(C)[C@H](CC(C)C)C(=O)N(C)[C@@H](C)C(=O)N[C@H](CC(C)C)C(=O)N2CCC[C@H]2C(=O)O[C@@H]1C,-5.46,n/a
CC(=O)N1CCC[C@@H]1C(=O)N(C)[C@H](CC(C)C)C(=O)N[C@@H]1C(=O)N[C@H](CC(C)C)C(=O)N[C@H](CC(C)C)C(=O)N[C@H](CC(C)C)C(=O)N(C)[C@@H](C)C(=O)N[C@H](CC(C)C)C(=O)N2CCC[C@H]2C(=O)O[C@@H]1C,-6.22,n/a
CC(=O)N1CCC[C@H]1C(=O)N(C)[C@@H](CC(C)C)C(=O)N[C@@H]1C(=O)N[C@@H](CC(C)C)C(=O)N(C)[C@H](CC(C)C)C(=O)N(C)[C@@H](CC(C)C)C(=O)N(C)[C@@H](C)C(=O)N[C@@H](CC(C)C)C(=O)N2CCC[C@@H]2C(=O)O[C@@H]1C,-5.62,n/a
CC(=O)N1CCC[C@@H]1C(=O)N(C)[C@@H](CC(C)C)C(=O)N[C@@H]1C(=O)N[C@@H](CC(C)C)C(=O)N[C@H](CC(C)C)C(=O)N[C@H](CC(C)C)C(=O)N[C@H](C)C(=O)N[C@@H](CC(C)C)C(=O)N2CCC[C@H]2C(=O)O[C@@H]1C,-7.00,n/a
CC(=O)N1CCC[C@H]1C(=O)N(C)[C@@H](CC(C)C)C(=O)N[C@@H]1C(=O)N[C@H](CC(C)C)C(=O)N(C)[C@@H](CC(C)C)C(=O)N(C)[C@H](CC(C)C)C(=O)N(C)[C@H](C)C(=O)N[C@@H](CC(C)C)C(=O)N2CCC[C@H]2C(=O)O[C@@H]1C,-5.40,n/a
CC(=O)N1CCC[C@H]1C(=O)N(C)[C@@H](CC(C)C)C(=O)N[C@@H]1C(=O)N[C@H](CC(C)C)C(=O)N[C@@H](CC(C)C)C(=O)N[C@H](CC(C)C)C(=O)N[C@H](C)C(=O)N[C@@H](CC(C)C)C(=O)N2CCC[C@@H]2C(=O)O[C@@H]1C,-6.88,n/a
CC(=O)N1CCC[C@H]1C(=O)N(C)[C@@H](CC(C)C)C(=O)N[C@@H]1C(=O)N(C)[C@@H](CC(C)C)C(=O)N[C@@H](CC(C)C)C(=O)N[C@@H](CC(C)C)C(=O)N(C)[C@@H](C)C(=O)N[C@H](CC(C)C)C(=O)N2CCC[C@@H]2C(=O)O[C@@H]1C,-6.37,n/a
CC(=O)N1CCC[C@@H]1C(=O)N(C)[C@@H](CC(C)C)C(=O)N[C@@H]1C(=O)N[C@H](CC(C)C)C(=O)N[C@H](CC(C)C)C(=O)N[C@H](CC(C)C)C(=O)N[C@H](C)C(=O)N[C@H](CC(C)C)C(=O)N2CCC[C@@H]2C(=O)O[C@@H]1C,-7.16,n/a
CC(=O)N1CCC[C@H]1C(=O)N(C)[C@H](CC(C)C)C(=O)N[C@@H]1C(=O)N[C@@H](CC(C)C)C(=O)N[C@@H](CC(C)C)C(=O)N(C)[C@@H](CC(C)C)C(=O)N[C@@H](C)C(=O)N[C@@H](CC(C)C)C(=O)N2CCC[C@H]2C(=O)O[C@@H]1C,-5.90,n/a
CC(=O)N1CCC[C@@H]1C(=O)N(C)[C@H](CC(C)C)C(=O)N[C@@H]1C(=O)N[C@H](CC(C)C)C(=O)N(C)[C@H](CC(C)C)C(=O)N[C@@H](CC(C)C)C(=O)N(C)[C@H](C)C(=O)N[C@H](CC(C)C)C(=O)N2CCC[C@H]2C(=O)O[C@@H]1C,-5.16,n/a
CC(=O)N1CCC[C@@H]1C(=O)N(C)[C@H](CC(C)C)C(=O)N[C@@H]1C(=O)N(C)[C@@H](CC(C)C)C(=O)N(C)[C@H](CC(C)C)C(=O)N(C)[C@H](CC(C)C)C(=O)N[C@@H](C)C(=O)N[C@H](CC(C)C)C(=O)N2CCC[C@H]2C(=O)O[C@@H]1C,-5.26,n/a
CC(=O)N1CCC[C@@H]1C(=O)N(C)[C@@H](CC(C)C)C(=O)N[C@@H]1C(=O)N[C@@H](CC(C)C)C(=O)N[C@H](CC(C)C)C(=O)N(C)[C@@H](CC(C)C)C(=O)N(C)[C@@H](C)C(=O)N[C@H](CC(C)C)C(=O)N2CCC[C@@H]2C(=O)O[C@@H]1C,-5.95,n/a
CC(=O)N1CCC[C@H]1C(=O)N(C)[C@@H](CC(C)C)C(=O)N[C@@H]1C(=O)N[C@@H](CC(C)C)C(=O)N[C@H](CC(C)C)C(=O)N[C@@H](CC(C)C)C(=O)N[C@@H](C)C(=O)N[C@@H](CC(C)C)C(=O)N2CCC[C@H]2C(=O)O[C@@H]1C,-7.30,n/a

Extract of 3 entries:

compound,PAMPA (log10 cm/s),MDCK (log10 cm/s)
CC(=O)N1CCC[C@@H]1C(=O)N(C)[C@@H](CC(C)C)C(=O)N[C@@H]1C(=O)N[C@@H](CC(C)C)C(=O)N[C@H](CC(C)C)C(=O)N[C@H](CC(C)C)C(=O)N[C@H](C)C(=O)N[C@@H](CC(C)C)C(=O)N2CCC[C@H]2C(=O)O[C@@H]1C,-7.00,n/a
CC(=O)N1CCC[C@H]1C(=O)N(C)[C@@H](CC(C)C)C(=O)N[C@@H]1C(=O)N[C@@H](CC(C)C)C(=O)N[C@H](CC(C)C)C(=O)N[C@@H](CC(C)C)C(=O)N[C@@H](C)C(=O)N[C@@H](CC(C)C)C(=O)N2CCC[C@H]2C(=O)O[C@@H]1C,-7.30,n/a
CC(=O)N1CCC[C@@H]1C(=O)N(C)[C@@H](CC(C)C)C(=O)N[C@@H]1C(=O)N[C@H](CC(C)C)C(=O)N[C@H](CC(C)C)C(=O)N[C@H](CC(C)C)C(=O)N[C@H](C)C(=O)N[C@H](CC(C)C)C(=O)N2CCC[C@@H]2C(=O)O[C@@H]1C,-7.16,n/a